This passage reports IC50 results from publication PMC9102781 (Molecules, 2022).

Sequences of proteins named here, by UniProt entry; tags and fusion partners are left off. Residues count along the entry.
UniProt O42275, 24-633: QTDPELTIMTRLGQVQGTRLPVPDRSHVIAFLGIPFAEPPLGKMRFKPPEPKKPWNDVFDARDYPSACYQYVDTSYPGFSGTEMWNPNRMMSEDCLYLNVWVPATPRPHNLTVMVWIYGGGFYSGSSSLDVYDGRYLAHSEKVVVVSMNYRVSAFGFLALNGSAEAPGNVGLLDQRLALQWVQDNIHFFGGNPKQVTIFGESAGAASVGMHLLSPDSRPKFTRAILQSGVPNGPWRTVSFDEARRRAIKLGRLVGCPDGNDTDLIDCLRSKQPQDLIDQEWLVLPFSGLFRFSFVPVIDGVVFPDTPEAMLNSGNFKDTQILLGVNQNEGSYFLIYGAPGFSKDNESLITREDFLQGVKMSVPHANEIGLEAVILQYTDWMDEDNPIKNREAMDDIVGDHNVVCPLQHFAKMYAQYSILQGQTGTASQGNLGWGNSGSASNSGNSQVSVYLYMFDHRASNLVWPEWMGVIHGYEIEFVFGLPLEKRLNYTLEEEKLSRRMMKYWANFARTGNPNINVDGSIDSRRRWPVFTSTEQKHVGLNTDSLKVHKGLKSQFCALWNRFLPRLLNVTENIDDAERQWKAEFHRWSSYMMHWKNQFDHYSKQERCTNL

In the experiment the target is T1, Acetylcholinesterase (AChE) (Electrophorus electricus, UniProt O42275).
T1 construct: purchased Sigma Aldrich type VI-S
The experiment can be described thus: In vitro anti-acetylcholinesterase assay (Ellman's method). The experiment is classed as biochemical. From the text:
In vitro enzyme assay reagents were purchased as previously described. Acetylcholinesterase (AChE) from Electrophorus electricus type VI-S lyophilized powder (137 units/mg) was acquired from Sigma Aldrich (St. Louis, MO, USA). Substrate acetylthiocholine iodide (ATCl) and sodium phosphate monobasic and dibasic anhydrous used for buffer preparation were obtained from Wako Pure Chemical (Osaka, Japan). Coloring reagent 5,5′-dithio-bis-(2-nitrobenzoic acid) (DTNB) was acquired from Nacalai Tesque (Kyoto, Japan). Positive control physostigmine was obtained from TCI Tokyo Chemical Industry (Tokyo, Japan). All other reagents acquired from commercial sources were of analytical grade.
The plant fractions and isolated compounds were evaluated for their anti-AChE potential in triplicate based on the Ellman’s method described previously. Physostigmine was used as a positive control.
(In Ellman's method for cholinesterases, released thiocholine reacts with DTNB.)

Each structure is given as a SMILES string.

For orientation: IC50 means the midpoint of a concentration-inhibition curve. Lower therefore signals greater potency. Molecule `CNC(=O)Oc1ccc2c(c1)[C@]1(C)CCN(C)[C@@H]1N2C` [Physostigmine, reference compound] showed an IC50 of 100 nM.
